From publication PMC3664191 (Bioorganic & medicinal chemistry letters, 2013)

The chains behind the UniProt entries cited, without tags or fusion partners.
UniProt Q9HAZ1, whole entry, species assumed: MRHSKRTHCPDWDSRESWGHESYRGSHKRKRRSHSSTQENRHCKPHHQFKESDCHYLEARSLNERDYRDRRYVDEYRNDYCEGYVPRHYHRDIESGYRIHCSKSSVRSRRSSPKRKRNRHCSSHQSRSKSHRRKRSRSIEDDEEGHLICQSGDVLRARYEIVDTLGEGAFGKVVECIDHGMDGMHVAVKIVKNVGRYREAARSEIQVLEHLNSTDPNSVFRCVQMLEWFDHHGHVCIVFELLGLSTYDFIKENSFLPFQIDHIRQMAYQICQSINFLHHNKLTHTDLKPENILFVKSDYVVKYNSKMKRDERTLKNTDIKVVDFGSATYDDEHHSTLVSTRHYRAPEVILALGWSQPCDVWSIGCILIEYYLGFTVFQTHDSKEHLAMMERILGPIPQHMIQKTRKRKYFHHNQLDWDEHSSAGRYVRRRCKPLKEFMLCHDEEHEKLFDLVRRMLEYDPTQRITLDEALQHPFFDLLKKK

Biological target: Clk4 (Homo sapiens, UniProt Q9HAZ1)
Test: Kinase Glo
Assay type: biochemical
Conditions: bioluminescent qHTS assays

selectivity for Clk4 over Dyrk1A: > 10 fold
SMILES: Clc1ccc(CNc2nccc(-c3ccc4[nH]ncc4c3)n2)cc1Cl [Compound 22]
